Results as given in publication PMC8278646 (Microbial Cell Factories, 2021).

Amino acid sequences for entries named in this document (tags omitted).
UniProt P01031, whole entry, looked up: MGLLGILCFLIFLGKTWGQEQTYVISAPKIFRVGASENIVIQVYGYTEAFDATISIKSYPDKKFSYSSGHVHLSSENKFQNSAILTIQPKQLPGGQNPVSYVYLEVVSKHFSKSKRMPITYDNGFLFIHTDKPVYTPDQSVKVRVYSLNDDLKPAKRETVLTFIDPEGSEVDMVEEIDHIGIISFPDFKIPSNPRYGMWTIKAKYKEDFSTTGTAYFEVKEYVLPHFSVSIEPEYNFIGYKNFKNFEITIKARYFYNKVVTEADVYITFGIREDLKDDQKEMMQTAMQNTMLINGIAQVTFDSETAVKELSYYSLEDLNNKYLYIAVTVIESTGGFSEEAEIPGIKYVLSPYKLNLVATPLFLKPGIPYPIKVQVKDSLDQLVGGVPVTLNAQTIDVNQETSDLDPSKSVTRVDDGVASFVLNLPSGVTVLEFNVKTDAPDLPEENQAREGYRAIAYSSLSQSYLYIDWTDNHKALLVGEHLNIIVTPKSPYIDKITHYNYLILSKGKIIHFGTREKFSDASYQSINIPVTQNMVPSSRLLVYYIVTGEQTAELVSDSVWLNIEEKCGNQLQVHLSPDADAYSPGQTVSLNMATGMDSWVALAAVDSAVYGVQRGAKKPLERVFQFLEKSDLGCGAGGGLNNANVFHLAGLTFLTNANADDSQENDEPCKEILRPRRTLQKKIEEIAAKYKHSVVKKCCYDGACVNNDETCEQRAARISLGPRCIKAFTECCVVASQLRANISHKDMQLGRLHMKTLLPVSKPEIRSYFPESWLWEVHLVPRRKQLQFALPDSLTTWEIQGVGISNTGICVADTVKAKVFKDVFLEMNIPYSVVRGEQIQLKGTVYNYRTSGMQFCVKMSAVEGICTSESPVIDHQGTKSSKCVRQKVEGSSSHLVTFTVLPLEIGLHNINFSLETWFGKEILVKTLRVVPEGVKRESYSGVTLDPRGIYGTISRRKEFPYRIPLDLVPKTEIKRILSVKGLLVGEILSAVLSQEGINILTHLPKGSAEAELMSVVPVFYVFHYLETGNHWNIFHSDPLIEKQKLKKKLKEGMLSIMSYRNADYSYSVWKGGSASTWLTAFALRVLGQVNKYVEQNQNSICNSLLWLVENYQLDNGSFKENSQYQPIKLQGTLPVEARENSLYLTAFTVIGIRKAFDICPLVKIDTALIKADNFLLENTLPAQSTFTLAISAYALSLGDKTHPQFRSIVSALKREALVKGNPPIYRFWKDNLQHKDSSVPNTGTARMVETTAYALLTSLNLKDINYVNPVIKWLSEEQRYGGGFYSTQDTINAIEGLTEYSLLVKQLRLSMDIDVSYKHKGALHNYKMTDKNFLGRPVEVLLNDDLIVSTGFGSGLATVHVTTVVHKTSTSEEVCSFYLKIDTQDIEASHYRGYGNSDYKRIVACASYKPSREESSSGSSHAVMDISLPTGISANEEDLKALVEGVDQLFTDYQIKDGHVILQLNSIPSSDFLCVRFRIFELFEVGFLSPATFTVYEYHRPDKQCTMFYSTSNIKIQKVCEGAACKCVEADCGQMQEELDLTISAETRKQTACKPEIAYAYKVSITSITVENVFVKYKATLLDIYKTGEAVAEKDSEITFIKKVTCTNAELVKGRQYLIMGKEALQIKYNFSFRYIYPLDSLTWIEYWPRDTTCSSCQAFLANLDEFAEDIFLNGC

Target: T1, Complement C5 from human serum (Homo sapiens, UniProt P01031)
T1 construct: complement C5 beta chain, human, from serum; complement C5 alpha chain, human, from serum; source: bought: Sigma-Aldrich (from human serum)
Assay: ELISA; antigen coated on MaxiSorp plates (5 ug/mL, carbonate buffer pH 9.6); antibody fragments purified from culture supernatant by cobalt-based immunoprecipitation, serially diluted; detection by anti-6x-His-tag antibody, OD450; room temperature
Conditions: both partners purified

binding result: binds
B1: Pexelizumab (Pex, Humanized), scFv (scFv, V domains shown)
VH: QVQLVQSGAEVKKPGASVKVSCKASGYIFSNYWIQWVRQAPGQGLEWMGEILPGSGSTEYTENFKDRVTMTRDTSTSTVYMELSSLRSEDTAVYYCARYFFGSSPNWYFDVWGQGTLVTVSS
VL: DIQMTQSPSSLSASVGDRVTITCGASENIYGALNWYQRKPGKAPKLLIYGATNLADGVPSRFSGSGSGTDFTLTISSLQPEDFATYYCQNVLNTPLTFGQGTKVEIK
notes: VH of Pexelizumab; polypeptide linker between VH and VL; VL of Pexelizumab; A spacer EEGEPK stood at the C-terminus of the leader; A further band of ca. 14 kDa (partial degradation) was in the supernatant; source: S. cerevisiae HA (also LA, MA), secreted with alpha-factor leader; used as concentrated culture supernatant and purified from it by cobalt-based immunoprecipitation; not shown: His6, …
